# The entries are a selection whose mix differs from that of the whole data set. Active and inactive are the calls of the source. No stated cut-off is given here; in the data, active means inhibition above about 50%; inactive means the rest.
# Amino acid sequences for entries named in this document (tags omitted). A change or cut given only in a name is not applied to a line headed by its entry.
# UniProt O75030: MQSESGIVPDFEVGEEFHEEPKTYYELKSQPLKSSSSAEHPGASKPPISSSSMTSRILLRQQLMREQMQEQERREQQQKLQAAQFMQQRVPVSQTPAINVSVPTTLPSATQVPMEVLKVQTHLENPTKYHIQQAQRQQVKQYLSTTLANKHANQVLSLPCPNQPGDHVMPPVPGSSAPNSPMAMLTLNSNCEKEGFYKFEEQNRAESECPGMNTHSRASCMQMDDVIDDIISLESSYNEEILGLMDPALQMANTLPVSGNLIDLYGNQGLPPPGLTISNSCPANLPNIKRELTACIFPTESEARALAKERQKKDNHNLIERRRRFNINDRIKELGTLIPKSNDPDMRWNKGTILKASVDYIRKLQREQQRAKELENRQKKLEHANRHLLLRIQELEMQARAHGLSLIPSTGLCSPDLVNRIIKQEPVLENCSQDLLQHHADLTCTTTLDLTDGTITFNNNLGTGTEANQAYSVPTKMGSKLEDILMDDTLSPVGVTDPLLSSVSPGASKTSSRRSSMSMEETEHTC
# Target: Microphthalmia-associated transcription factor (Homo sapiens) (UniProt O75030)
# Assay: MITF inhibitors, primary screen, biochemical, AlphaScreen, human (AID 1259374);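 further: 0% = vehicle wells with protein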
# Conditions: AlphaScreen MITF homodimerization, bead proximity signal; at 2.6 µM; hits give high values
row,SMILES,inhibition
1,COc1ccccc1NC1=NCC(CBr)S1 (stereo unspecified),inactive: -2.54%
2,O=C(/C=C/c1ccccc1)OC1CN2CCC1CC2 (stereo unspecified),inactive: -1.67%
3,O=C(O)C(Cl)CSc1nc2ccccc2o1 (stereo unspecified),inactive: -9%
4,COCCN(CCOC)C(=O)COC(=O)C(O)(c1ccccc1)c1ccccc1,inactive: 4.16%
5,CN(C)C1(CNC(=O)c2ccc(S(C)(=O)=O)cc2)CCCCC1,inactive: -5.69%
6,O=C(Cc1ccc(F)cc1)N(Cc1ccco1)C1CCN(CCc2ccccn2)CC1,inactive: 2.7%
7,CCc1cccc(NC(=O)Oc2c([N+](=O)[O-])cc([N+](=O)[O-])cc2[N+](=O)[O-])c1,inactive: 11.8%
8,O=C(c1ccco1)N(Cc1cccnc1)C1CCN(CCc2ccc(Cl)cc2)CC1,inactive: -5.37%
9,COc1cc([N+](=O)[O-])cc([N+](=O)[O-])c1N/N=C(/C)c1cccc([N+](=O)[O-])c1,inactive: -19.9%
10,CC(Cl)(CSSCC(C)(Cl)C(=O)O)C(=O)O (stereo unspecified),inactive: 6.78%
11,CC1(CBr)Cn2c(nc3ccccc3c2=O)S1 (stereo unspecified),inactive: 12.5%
12,COC(=O)c1nsnc1NCCCl,inactive: 2.64%
13,Cc1ccc(S(=O)(=O)NCCCCC(NC(=O)OC(C)(C)C)C(=O)O)cc1 (stereo unspecified),inactive: 9.24%
14,COC(=O)c1cc([N+](=O)[O-])c(Nc2ccc([N+](=O)[O-])cc2Br)c([N+](=O)[O-])c1,inactive: 12.3%
15,O=C(Nc1ccc(Br)cc1[N+](=O)[O-])c1cc([N+](=O)[O-])cc([N+](=O)[O-])c1,inactive: 29.5%
16,CCCCC(NC(=O)OC(C)(C)C)C(=O)O (stereo unspecified),inactive: -6.64%
17,CCOP(=O)(CN)OCC,active: 55.5%
18,CN(CCCl)Cc1cc(Cl)c(NC2=NCCN2)c(Cl)c1,inactive: 3.25%
19,O=P1(Nc2ccccn2)COc2ccccc2OC1,inactive: -4.41%
20,O=[N+]([O-])c1cc([N+](=O)[O-])c(N2CCCCC2)c([N+](=O)[O-])c1,inactive: 23.1%
21,CCOc1ccc(NC(=O)c2ccc([N+](=O)[O-])cc2[N+](=O)[O-])c([N+](=O)[O-])c1,inactive: 16.8%

row,SMILES,inhibition
1,COc1ccc2nc(SCc3ccc(C(=O)O)cc3)[nH]c2c1,inactive: 4.65%
2,COc1cccc(OP(=O)(Nc2ccccn2)Oc2cccc(OC)c2)c1,inactive: 2.38%
3,CCOP(=O)(NC(=NC(C)c1ccccc1)NC(C)c1ccccc1)OCC (stereo unspecified),inactive: -4.84%
4,n1[nH]nc2c1c1n[nH]nc1c1n[nH]nc21,inactive: 28.6%
5,CCOc1ccc(NP2(=O)C=C(Cl)N(C)C(=O)N2C)cc1 (stereo unspecified),inactive: 13.4%
6,CC(C)(C)C(=O)NC(Sc1ncccn1)C(Cl)(Cl)Cl (stereo unspecified),inactive: 3.86%
7,O=P(/C=C(\Cl)c1ccccc1)(/C=C(\Cl)c1ccccc1)Nc1nncs1,inactive: 8.26%
8,CC(C)NC(=O)N(Cc1ccco1)C1CCN(CCc2cccs2)CC1,inactive: 6.21%
9,O=C(Nc1cccc(F)c1)N(Cc1ccco1)C1CCN(CCc2ccccn2)CC1,inactive: 9.15%
10,O=C(Nc1c(Cl)cc([N+](=O)[O-])cc1[N+](=O)[O-])c1ccc([N+](=O)[O-])cc1,inactive: -12.3%
11,BrCC1Cn2c(nnc2-c2cccnc2)S1 (stereo unspecified),inactive: -9.5%
12,COc1ccc(/C=C2/C(=O)NC(=O)N(Cc3ccco3)C2=O)c(OC)c1,active: 62.8%
13,O=[N+]([O-])c1ccc(N/N=C/C=C/c2ccc([N+](=O)[O-])o2)c([N+](=O)[O-])c1,inactive: 28%
14,COc1ccc(S(=O)(=O)N(CCCl)CCCl)cc1,inactive: -5.76%
15,CC(C)NC(=O)N(Cc1cccnc1)C1CCN(CCc2cccs2)CC1,inactive: 2.11%
16,Cc1ccc(NP(=O)(OCC(C)C)OCC(C)C)nc1,inactive: 7.75%
17,COc1ccc(CCN2CCC(N(Cc3ccco3)C(=O)c3cccc(C#N)c3)CC2)cc1,inactive: 13.5%
18,O=C(N/N=C/c1ccc([N+](=O)[O-])o1)c1cc([N+](=O)[O-])cc([N+](=O)[O-])c1,inactive: 15.2%
19,CCOP(=O)(Nc1cccc(F)c1)OCC,inactive: -15.2%
20,CNC(=O)c1nsnc1NCCCl,inactive: 4.12%
21,CC1Cc2ccccc2N1C(=O)COC(=O)C(O)(c1ccccc1)c1ccccc1 (stereo unspecified),inactive: 2.34%

row,SMILES,inhibition
1,O=C(Nc1cccc(F)c1)N(Cc1ccco1)C1CCN(CCc2cccs2)CC1,inactive: -0.42%
2,O=C(COc1ccccc1[N+](=O)[O-])N/N=C/c1cc([N+](=O)[O-])cc([N+](=O)[O-])c1O,inactive: -9.62%
3,C/C(=N\Nc1ccc([N+](=O)[O-])cc1[N+](=O)[O-])c1ccc([N+](=O)[O-])cc1,inactive: 9.14%
4,O=C(COC(=O)C(O)(c1ccccc1)c1ccccc1)NCCN1C(=O)CSC1=O,inactive: 0.29%
5,COc1ccccc1OP(=O)(Nc1ccccn1)Oc1ccccc1OC,inactive: 5.39%
6,CCc1cc2c[n+](C3CCCCC3)sc2s1,inactive: -1.49%
7,CC(=O)OC1CN2CCC1C(c1ccccc1)C2 (stereo unspecified),inactive: 14.1%
8,O=[N+]([O-])c1cc([N+](=O)[O-])c(NCCCO)c([N+](=O)[O-])c1,inactive: -9.57%
9,CCOC(=O)C(C)NC(=O)CSP(=O)(OCC)OCC (stereo unspecified),inactive: 2.78%
10,COC(=O)N(c1ccccc1)P1OCC(C)O1 (stereo unspecified),inactive: 13.1%
11,CC(C)OP(=O)(OC(C)C)N1CCCCC1,inactive: 8.54%
12,CCOc1ccc(S(=O)(=O)N(CCCl)CCCl)cc1,inactive: -10.8%
13,O=C(OC1CN2CCC1CC2)c1cccc(Cl)c1 (stereo unspecified),inactive: 12.3%
14,Nc1nonc1OCc1nonc1COc1nonc1N,inactive: 11.6%
15,CC(=O)O[C@H]1CN2CCC1[C@@H](c1ccccc1)C2 (stereo partly specified),inactive: 3.4%
16,O=C(c1ccco1)N(Cc1cccnc1)C1CCN(CCc2ccccn2)CC1,inactive: 6.76%
17,CCOP(=S)(NN(CCCl)c1ccccc1)OCC,inactive: 1.44%
18,CN(C(=O)Cc1ccc(Cl)c(Cl)c1)[C@@H]1CCCC[C@@H]1N1CCCC1,inactive: 21.4%
19,COc1ccc([N+](=O)[O-])cc1NC(=O)c1ccc([N+](=O)[O-])cc1[N+](=O)[O-],inactive: 9.23%

# — PubChem BioAssay AID1259374 (The Scripps Research Institute Molecular Screening Center, 2018)
